US7632933B2, “Corticotropin releasing factor 2 receptor agonists” (priority 2002, dated 2009)

Experiments:
CRF2R = molecular target: T1, CRF2R (Homo sapiens, UniProt Q13324); assay: CRF2R agonist activity (EC50 and Emax), called comparative CRF binding; assay type: cell-based; conditions: CRF2R EC50 (nM), CRF2R
T1 sequence (Q13324 1-411): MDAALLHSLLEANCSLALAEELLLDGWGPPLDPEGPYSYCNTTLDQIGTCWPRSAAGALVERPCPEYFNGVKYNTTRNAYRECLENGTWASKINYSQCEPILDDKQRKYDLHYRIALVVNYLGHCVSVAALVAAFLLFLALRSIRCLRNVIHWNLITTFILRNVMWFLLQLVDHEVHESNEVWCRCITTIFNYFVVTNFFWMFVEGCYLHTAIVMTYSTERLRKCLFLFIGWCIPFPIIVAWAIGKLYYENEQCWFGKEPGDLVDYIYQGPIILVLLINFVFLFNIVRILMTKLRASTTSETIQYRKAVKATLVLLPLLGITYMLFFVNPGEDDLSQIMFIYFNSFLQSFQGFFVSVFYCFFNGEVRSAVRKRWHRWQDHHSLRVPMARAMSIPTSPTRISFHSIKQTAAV
Text: (§1) The pharmacological activity and selectivity of the peptides of present invention can be determined using published test procedures. See, e.g, U.S. patent application Ser. No. 09/799,978. Because CRF2R and CRF1R are homologous proteins, it is expected that a certain proportion of agonists for CRF2R will also function as agonists of CRF1R. As discussed above, activation of CRF1R induces activation of the HPA axis since increased corticosteroid production leads to skeletal muscle atrophy. In most cases in which an increase in muscle mass or function is desired, it is not desirable to activate the HPA axis.
(§2) Because it is desirable to discriminate binding between CRF2R, as compared with CRF1R, the assays described above may be conducted using a cell, or membrane from a cell, which expresses only CRF2R or the assays can be conducted with a recombinant source of CRF2R. Cells expressing both forms of CRFR may be modified using homologous recombination to inactivate or otherwise disable the CRF1R gene. Alternatively, if the source of CRFR contains more than one CRFR type, the background signal produced by the receptor which is not of interest must be subtracted from the signal obtained in the assay. […] Known antagonists of CRFRs include, but are not limited to, antalarmin (CRF1R selective), antisauvagine-30 (CRF2R selective) and astressin (nonselective for CRF1R/CRF2R).
(§3) Cell-based assays include the steps of contacting cells which express CRF1R or CRF2R with a peptide of the present invention or control and measuring activation of the CRFR by measuring the expression or activity of components of the CRFR signal transduction pathways.
(§4) For example, after contact with a peptide of the present invention, lysates of the cells can be prepared and assayed for induction of cAMP. cAMP is induced in response to Gαs activation. Because Gαs is activated by receptors other than CRFR and because a test peptide may be exerting its effect through CRFRs or by another mechanism, two control comparisons are relevant for determining whether the peptide increases levels of cAMP via activation of a CRFR. One control compares the cAMP level of cells contacted with the peptide and the cAMP level of cells contacted with a control compound (i.e., the vehicle in which the peptide is dissolved).
(§5) In one example, cAMP induction is measured with the use of DNA constructs containing the cAMP responsive element linked to any of a variety of reporter genes can be introduced into cells expressing CRFRs. Such reporter genes include, but are not limited to, chloramphenicol acetyltransferase (CAT), luciferase, glucuronide synthetase, growth hormone, fluorescent proteins (e.g., Green Fluorescent Protein), or alkaline phosphatase. Following exposure of the cells to the peptide, the level of reporter gene expression can be quantitated to determine the peptide's ability to increase cAMP levels and thus determine the peptide's ability to activate the CRFR.
(§6) In addition to using cells expressing full length CRFRs, cells can be engineered which express CRFRs containing the ligand binding domain of the receptor coupled to, or physically modified to contain, reporter elements or to interact with signaling proteins. For example, a wild type CRFR or CRFR fragment can be fused to a G-protein resulting in activation of the fused G-protein upon agonist binding to the CRFR portion of the fusion protein. […] In addition, alternative pathways for induction of the CRE reporter could be eliminated to reduce basal levels.

CRF1R = molecular target: T2, CRF1R (Homo sapiens, UniProt P34998); assay: CRF1R agonist activity (EC50 and Emax), called comparative CRF binding; assay type: cell-based; conditions: CRF1R; for EC50: CRF1R EC50 (nM)
T2 sequence (P34998 24-415): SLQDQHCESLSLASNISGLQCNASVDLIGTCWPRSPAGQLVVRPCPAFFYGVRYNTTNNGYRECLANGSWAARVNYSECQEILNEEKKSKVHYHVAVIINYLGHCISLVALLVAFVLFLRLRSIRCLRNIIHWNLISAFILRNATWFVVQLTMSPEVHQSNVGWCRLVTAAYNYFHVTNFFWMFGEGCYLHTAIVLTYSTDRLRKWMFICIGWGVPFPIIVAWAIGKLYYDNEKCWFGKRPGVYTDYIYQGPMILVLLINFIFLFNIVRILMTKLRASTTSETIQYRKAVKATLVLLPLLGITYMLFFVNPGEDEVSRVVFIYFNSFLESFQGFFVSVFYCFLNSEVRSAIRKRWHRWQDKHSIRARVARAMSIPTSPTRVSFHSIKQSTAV
Text: as §1, §2, §3, §4, §5, §6

CC[C@H](C)[C@H](NC(=O)[C@@H](NC(=O)[C@H](CC(=O)O)NC(=O)[C@H](CC(C)C)NC(=O)[C@H](CC(C)C)NC(=O)[C@H](CC(C)C)NC(=O)[C@H](CCCNC(=N)N)NC(=O)[C@H](CC(N)=O)NC(=O)[C@H](CC(N)=O)NC(=O)[C@H](C)NC(=O)[C@H](C)NC(=O)[C@H](CCC(N)=O)NC(=O)[C@H](CCC(N)=O)NC(=O)[C@H](CCCCN)NC(=O)[C@H](CCC(=O)O)NC(=O)[C@H](CCCCN)NC(=O)[C@H](CCC(=O)O)NC(=O)[C@H](CCC(N)=O)NC(=O)[C@H](CCCCN)NC(=O)[C@H](CCC(=O)O)NC(=O)[C@@H](NC(=O)[C@H](CCC(=O)O)NC(=O)[C@@H](NC(=O)[C@H](CCSC)NC(=O)[C@H](CCCCN)NC(=O)[C@H](CCCNC(=N)N)NC(=O)[C@H](CC(C)C)NC(=O)[C@H](CC(C)C)NC(=O)[C@H](CO)NC(=O)[C@@H](NC(=O)[C@@H]1CCCN1C(=O)[C@H](CC(C)C)NC(=O)[C@H](CC(=O)O)NC(=O)[C@@H](NC(=O)[C@H](CO)NC(=O)[C@@H](NC(=O)[C@@H]1CCCN1C(=O)[C@@H]1CCCN1C(=O)CNC(=O)[C@@H]1CCC(=O)N1)[C@@H](C)CC)[C@@H](C)CC)[C@@H](C)O)[C@@H](C)CC)[C@@H](C)CC)[C@@H](C)O)C(N)=O [compound 43] gave an EC50 (CRF2R) greater than 100 nM and an EC50 (CRF1R) greater than 1000 nM.

With CC[C@H](C)[C@H](NC(=O)[C@@H](NC(=O)[C@H](CC(=O)O)NC(=O)[C@H](CC(C)C)NC(=O)[C@H](CC(C)C)NC(=O)[C@H](CC(C)C)NC(=O)[C@H](CCCNC(=N)N)NC(=O)[C@H](CC(N)=O)NC(=O)[C@H](CC(N)=O)NC(=O)[C@H](C)NC(=O)[C@H](C)NC(=O)[C@H](CCC(N)=O)NC(=O)[C@H](CCC(N)=O)NC(=O)[C@H](CCCCN)NC(=O)[C@H](CCC(=O)O)NC(=O)[C@H](CCCCN)NC(=O)[C@H](CCC(=O)O)NC(=O)[C@H](CCC(N)=O)NC(=O)[C@H](CCCCN)NC(=O)[C@H](CCC(=O)O)NC(=O)[C@@H](NC(=O)[C@H](CCC(=O)O)NC(=O)[C@@H](NC(=O)[C@H](CCSC)NC(=O)[C@H](CCCCN)NC(=O)[C@H](CCCNC(=N)N)NC(=O)[C@H](CC(C)C)NC(=O)[C@H](CC(C)C)NC(=O)[C@H](Cc1c[nH]cn1)NC(=O)[C@H](Cc1ccccc1)NC(=O)[C@@H]1CCCN1C(=O)[C@H](CC(C)C)NC(=O)[C@H](CC(=O)O)NC(=O)[C@@H](NC(=O)[C@H](CO)NC(=O)[C@@H](NC(=O)[C@@H]1CCCN1C(=O)[C@@H]1CCCN1C(=O)CNC(=O)[C@@H]1CCC(=O)N1)[C@@H](C)CC)[C@@H](C)CC)[C@@H](C)CC)[C@@H](C)CC)[C@@H](C)O)C(N)=O [compound 69] the EC50 (CRF2R) was 5.85 nM and the EC50 (CRF1R) was 34.5 nM.

In the case of CC[C@H](C)[C@H](NC(=O)[C@H](CCC(=O)O)NC(=O)[C@@H](NC(=O)[C@H](CCSC)NC(=O)[C@H](CCCCN)NC(=O)[C@H](CCCNC(=N)N)NC(=O)[C@H](CC(C)C)NC(=O)[C@H](CC(C)C)NC(=O)[C@H](CCC(N)=O)NC(=O)[C@H](Cc1ccc(O)cc1)NC(=O)[C@@H]1CCCN1C(=O)[C@H](CC(C)C)NC(=O)[C@H](CC(=O)O)NC(=O)[C@@H](NC(=O)[C@H](CO)NC(=O)[C@@H](NC(=O)[C@@H]1CCCN1C(=O)[C@@H]1CCCN1C(=O)CNC(=O)[C@@H]1CCC(=O)N1)[C@@H](C)CC)[C@@H](C)CC)[C@@H](C)CC)C(=O)N[C@@H](CCC(=O)O)C(=O)N[C@@H](CCCCN)C(=O)N[C@@H](CCC(N)=O)C(=O)N[C@@H](CCC(=O)O)C(=O)N[C@@H](CCCCN)C(=O)N[C@@H](CCC(=O)O)C(=O)N[C@@H](CCCCN)C(=O)N[C@@H](CCC(N)=O)C(=O)N[C@@H](CCC(N)=O)C(=O)N[C@@H](C)C(=O)N[C@@H](C)C(=O)N[C@@H](CC(N)=O)C(=O)N[C@@H](CC(N)=O)C(=O)N[C@@H](C)C(=O)N[C@@H](CCCNC(=N)N)C(=O)N[C@@H](CC(C)C)C(=O)N[C@@H](CC(C)C)C(=O)N[C@@H](C)C(=O)N[C@@H](CCCNC(=N)N)C(N)=O [compound 288], the EC50 (CRF2R) is reported as 14.7 nM, the EC50 (CRF1R) is reported as 838 nM and the “CRF1R (Emax %)” value (CRF1R; Emax) is reported as “(31.65) %”.

CC[C@H](C)[C@H](NC(=O)[C@H](CCC(=O)O)NC(=O)[C@@H](NC(=O)[C@H](CCSC)NC(=O)[C@H](CCCCN)NC(=O)[C@H](CCCNC(=N)N)NC(=O)[C@H](CC(C)C)NC(=O)[C@H](CC(C)C)NC(=O)[C@H](CCC(N)=O)NC(=O)[C@H](Cc1ccccc1)NC(=O)[C@@H]1CCCN1C(=O)[C@H](CC(C)C)NC(=O)[C@H](CC(=O)O)NC(=O)[C@@H](NC(=O)[C@H](CO)NC(=O)[C@@H](NC(=O)[C@@H]1CCCN1C(=O)[C@@H]1CCCN1C(=O)CNC(=O)[C@@H]1CCC(=O)N1)[C@@H](C)CC)[C@@H](C)CC)[C@@H](C)CC)C(=O)N[C@@H](CCC(=O)O)C(=O)N[C@@H](CCCCN)C(=O)N[C@@H](CCC(N)=O)C(=O)N[C@@H](CCC(=O)O)C(=O)N[C@@H](CCCCN)C(=O)N[C@@H](CCC(=O)O)C(=O)N[C@@H](CCCCN)C(=O)N[C@@H](CCC(N)=O)C(=O)N[C@@H](CCC(N)=O)C(=O)N[C@@H](C)C(=O)N[C@H](C(=O)N[C@H](C(=O)N[C@@H](CC(N)=O)C(=O)N[C@@H](C)C(=O)N[C@@H](CCCNC(=N)N)C(=O)N[C@@H](CC(C)C)C(=O)N[C@@H](CC(C)C)C(=O)N[C@@H](C)C(=O)N[C@@H](CCCNC(=N)N)C(=O)N[C@H](C(N)=O)C(C)C)[C@@H](C)O)[C@@H](C)O [compound 23] gave an EC50 (CRF2R) of 10.2 nM and an EC50 (CRF1R) of no less than 1000 nM.

Work on CC[C@H](C)[C@H](NC(=O)[C@@H](NC(=O)[C@H](CC(=O)O)NC(=O)[C@H](CC(C)C)NC(=O)[C@H](CC(C)C)NC(=O)[C@H](CC(C)C)NC(=O)[C@H](CCCNC(=N)N)NC(=O)[C@H](CC(N)=O)NC(=O)[C@H](CC(N)=O)NC(=O)[C@H](C)NC(=O)[C@H](C)NC(=O)[C@H](CCC(N)=O)NC(=O)[C@H](CCC(N)=O)NC(=O)[C@H](CCCCN)NC(=O)[C@H](CCC(=O)O)NC(=O)[C@H](CCCCN)NC(=O)[C@H](CCC(=O)O)NC(=O)[C@H](CCC(N)=O)NC(=O)[C@H](CCCCN)NC(=O)[C@H](CCC(=O)O)NC(=O)[C@@H](NC(=O)[C@H](CCC(=O)O)NC(=O)[C@@H](NC(=O)[C@@H](NC(=O)[C@H](CCCCN)NC(=O)[C@H](CCCNC(=N)N)NC(=O)[C@H](CC(C)C)NC(=O)[C@H](CC(C)C)NC(=O)[C@@H](NC(=O)[C@@H](NC(=O)[C@@H]1CCCN1C(=O)[C@H](CC(C)C)NC(=O)[C@H](CC(=O)O)NC(=O)[C@@H](NC(=O)[C@H](CO)NC(=O)[C@@H](NC(=O)[C@@H]1CCCN1C(=O)[C@@H]1CCCN1C(=O)CNC(=O)[C@@H]1CCC(=O)N1)[C@@H](C)CC)[C@@H](C)CC)[C@@H](C)CC)[C@@H](C)CC)C(C)C)[C@@H](C)CC)[C@@H](C)CC)[C@@H](C)O)C(N)=O [compound 297] yielded an EC50 (CRF2R) of no less than 100 nM and an EC50 (CRF1R) of no less than 1000 nM.
